# Patent publication US8263065B2, “Tumor suppression using human placental perfusate and human placenta-derived intermediate natural killer cells” (Anthrogenesis Corporation, priority 2007, dated 2012)
# System: KG-1a cells
# Experiment: CFSE cytotoxicity of total nucleated cells from HPP or UCB
# Assay type: cell-based, Human
# Settings: 100 U/mL or 1000 U/mL IL-2 for 24 hours before KG-1a; ratio of 6.25 and above
# Description: Total nucleated cells from HPP or umbilical cord blood (UCB) were mixed with KG-1a cells at ratios of 1:1, 5:1, 10:1, 20:1 or 100:1. After 24 h or 48 h incubation, cells were harvested and examined for the presence of CFSE by FACS analysis (BD FACSCanto, BD Bioscience). Tumor cells cultured alone were used as controls. Cytotoxicity was defined as: (1−CFSESample/CFSE^Control)*100%.
# In a separate experiment, the cytotoxicity of total nucleated cells from HPP was compared to that of total nucleated cells from umbilical cord blood. Matched TNC-HPP or UCB was mixed with KG-1a cells at ratios of 0.78:1, 1.56:1, 3.12:1, 6.25:1, 12.5:1, 25:1, 50:1 or 100:1.
# In another experiment, 24 hours prior to incubation with KG-1a cells, TNC—HPP was stimulated with 100 U/mL, or 1000 U/mL of IL-2, while HPP cultured with RPMI medium was used as control.
substance,measurement,value
"IL-2: interleukin-2 (IL-2), cytokine used to stimulate perfusate cells",effect of IL-2 stimulation on cytotoxicity of TNC-HPP,appears to increase the cytotoxicity
